# Test results reported in article PMC6930522, “Structure-Based Pharmacophore Modeling, Virtual Screening, Molecular Docking and Biological Evaluation for Identification of Potential Poly (ADP-Ribose) Polymerase-1 (PARP-1) Inhibitors” (Molecules, 2019).
# Protein sequences, listed by entry. Tags and fused reporters are not part of them.
# UniProt P09874, whole entry: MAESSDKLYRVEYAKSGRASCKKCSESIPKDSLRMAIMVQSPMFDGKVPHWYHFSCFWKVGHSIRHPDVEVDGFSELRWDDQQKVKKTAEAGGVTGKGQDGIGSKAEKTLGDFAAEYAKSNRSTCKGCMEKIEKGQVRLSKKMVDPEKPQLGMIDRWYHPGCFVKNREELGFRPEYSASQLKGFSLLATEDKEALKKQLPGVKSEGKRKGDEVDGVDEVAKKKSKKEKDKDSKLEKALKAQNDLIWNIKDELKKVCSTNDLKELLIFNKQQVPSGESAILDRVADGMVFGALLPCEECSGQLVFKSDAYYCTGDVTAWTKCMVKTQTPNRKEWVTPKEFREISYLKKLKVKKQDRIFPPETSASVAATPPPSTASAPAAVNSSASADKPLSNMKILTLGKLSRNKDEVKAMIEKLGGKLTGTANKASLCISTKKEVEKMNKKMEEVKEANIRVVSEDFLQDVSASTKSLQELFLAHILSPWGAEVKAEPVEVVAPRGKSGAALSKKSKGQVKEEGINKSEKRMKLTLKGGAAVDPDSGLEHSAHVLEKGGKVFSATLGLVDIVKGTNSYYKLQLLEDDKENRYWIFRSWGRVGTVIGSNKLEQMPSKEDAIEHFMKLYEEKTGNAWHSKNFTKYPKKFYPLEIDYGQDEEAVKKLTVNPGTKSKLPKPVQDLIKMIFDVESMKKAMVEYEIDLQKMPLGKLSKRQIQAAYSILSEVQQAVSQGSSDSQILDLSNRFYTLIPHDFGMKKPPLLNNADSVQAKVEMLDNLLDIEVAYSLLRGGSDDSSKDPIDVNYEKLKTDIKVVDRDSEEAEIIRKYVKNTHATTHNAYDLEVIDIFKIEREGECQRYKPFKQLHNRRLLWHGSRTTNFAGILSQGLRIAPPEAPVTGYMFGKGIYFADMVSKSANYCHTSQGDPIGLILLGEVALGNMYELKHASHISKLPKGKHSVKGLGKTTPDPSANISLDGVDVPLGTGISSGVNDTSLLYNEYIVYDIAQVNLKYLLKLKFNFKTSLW
# Target: T1, PARP-1 (Homo sapiens, UniProt P09874)
# T1 construct: purchased Trevigan (Gaithersburg, MD, USA)
# Experiment: In vitro PARP inhibition assay (PARP-1)
# Format: biochemical
# Details: Table 3; PARP-1 enzyme assay, mean ± SD, three independent experiments
# Procedure: Purified recombinant human PARPs from Trevigan (Gaithersburg, MD, USA) was used to determine the IC50 values of a PARP inhibitor. The PARP enzyme assay was set up on ice in a volume of 100 μL consisting of 50 mM Tris–HCl (pH 8.0), 2 mM MgCl2, 30 μg/mL of DNase activated herring sperm DNA (Sigma, MO, USA), 30 μM [^3H]nicotinamide adenine dinucleotide (67 mCi/mmol), 75 μg/mL PARP enzyme and various concentrations of the compounds to be tested. The reaction was initiated by incubating the mixture at 25 °C. After 15 min of incubation, the reaction was terminated by adding 500 μL of ice cold 20% (w/v) trichloroacetic acid. The formed precipitate was transferred onto a glass fiber filter (Packard Unifilter–GF/B) and washed three times with ethanol. After the filter is dried, the radioactivity is determined by scintillation counting.
structure (smiles),measurement,value
NC(=O)c1cccc2c1C(=O)N(C1CCN(Cc3ccc(F)cc3)CC1)C2 [Compound 1],IC50,31 ± 5 nM
